# Binding of CDR-mutated scFvs to a peptide of the spike HR2 region

From the AlphaSeq antibody data of Engelhart et al. 2022 (doi:10.1038/s41597-022-01779-4), copy in the FLAb collection.

Antigen: PDVDLGDISGINAS, a 14-residue peptide of the SARS-CoV-2 spike HR2 region.

Ab-95 is the parent antibody, in scFv form: VH, then three GGGGS repeats, then VL. The heavy chain is unchanged in all variants.
VH: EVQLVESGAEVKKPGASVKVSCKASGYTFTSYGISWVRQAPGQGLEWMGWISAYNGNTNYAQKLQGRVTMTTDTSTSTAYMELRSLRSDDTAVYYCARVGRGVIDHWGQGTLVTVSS
VL: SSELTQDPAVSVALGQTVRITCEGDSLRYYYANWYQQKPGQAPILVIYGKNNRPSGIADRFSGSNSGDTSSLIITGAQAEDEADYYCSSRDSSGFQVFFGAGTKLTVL

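The starting antibody came from a phage panning campaign against this peptide. The library (AAYL52) carries one to three amino acid substitutions per variant, with no insertions or deletions. The assay is AlphaSeq: two haploid yeast populations carry antibody and antigen on their surface. After mating in shaken culture at 30 °C for 16 h, diploids were selected and their barcode pairs sequenced. A regression on co-assayed BCL2-family reference pairs converts the normalised counts of each replicate to an apparent Kd. Mating was done three times.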

Positions count from residue 1 of the parent VL; E23F puts F in place of E. Kd is apparent (estimated from mating counts) and averaged on the log scale over replicates with a signal. Smaller is tighter. Where no diploid with the target was found in any replicate, the entry reads "no signal": below detection, most likely a poor binder, though not proof of it. The list is sorted by this average, lowest first, undetected variants last. Three control strains display no target. For library AAYL52, 28% of the pairings with them gave a signal, with a median of 8.2 µM and one signal in twenty below 800 nM, so weak values seen in few replicates may be background. For reference, the parent read 200 nM as the reference entry and 180 nM as a member of this library.

{"changes": "E23F+Y30E+P54M", "apparent Kd": "19 nM", "replicates with signal": "3/3"}
{"changes": "E23S+F98R", "apparent Kd": "53 nM", "replicates with signal": "3/3"}
{"changes": "D25S+K50G", "apparent Kd": "62 nM", "replicates with signal": "3/3"}
{"changes": "G24H+R28H+S55A", "apparent Kd": "570 nM", "replicates with signal": "3/3"}
{"changes": "Y30S+N33I", "apparent Kd": "830 nM", "replicates with signal": "3/3"}
{"changes": "E23S+N33A+N52D", "apparent Kd": "970 nM", "replicates with signal": "2/3"}
{"changes": "E23I+R53N+F98P", "apparent Kd": "1.3 µM", "replicates with signal": "3/3"}
{"changes": "R28G+Y29P+Y31W", "apparent Kd": "1.4 µM", "replicates with signal": "3/3"}
{"changes": "R90T+S92W+G94T", "apparent Kd": "1.4 µM", "replicates with signal": "3/3"}
{"changes": "N51T+Q96C+F98T", "apparent Kd": "3.1 µM", "replicates with signal": "1/3"}
{"changes": "Y29Q+S92A+V97F", "apparent Kd": "3.2 µM", "replicates with signal": "3/3"}
{"changes": "Y30F+R90V+V97F", "apparent Kd": "4.0 µM", "replicates with signal": "3/3"}
{"changes": "E23T+Y31N+A32D", "apparent Kd": "4.5 µM", "replicates with signal": "2/3"}
{"changes": "P54N+S88W+Q96R", "apparent Kd": "7.4 µM", "replicates with signal": "1/3"}
{"changes": "S26R+N51F+N52L", "apparent Kd": "9.1 µM", "replicates with signal": "2/3"}
{"changes": "E23Y+N33C+Q96G", "apparent Kd": "10 µM", "replicates with signal": "2/3"}
{"changes": "G24I+G49W+Q96D", "apparent Kd": "11 µM", "replicates with signal": "2/3"}
{"changes": "Y29F+S88W+S93P", "apparent Kd": "13 µM", "replicates with signal": "3/3"}
{"changes": "G24F+Y29N+R90A", "apparent Kd": "17 µM", "replicates with signal": "2/3"}
{"changes": "E23G+S26N+Y31V", "apparent Kd": "50 µM", "replicates with signal": "1/3"}
{"changes": "N33M+G49P+S89A", "apparent Kd": "60 µM", "replicates with signal": "2/3"}
{"changes": "A32N+S89N+V97I", "apparent Kd": "190 µM", "replicates with signal": "1/3"}
{"changes": "G24V+S26F+S88G", "apparent Kd": "no signal", "replicates with signal": "0/3"}
{"changes": "L27R+P54R+V97M", "apparent Kd": "no signal", "replicates with signal": "0/3"}
{"changes": "A32H+G49A+S88E", "apparent Kd": "no signal", "replicates with signal": "0/3"}
{"changes": "N33D+D91L+F95D", "apparent Kd": "no signal", "replicates with signal": "0/3"}
{"changes": "D25A+G49F+S92Y", "apparent Kd": "no signal", "replicates with signal": "0/3"}

Extract of 3 entries:

{"changes": "R90T+S92W+G94T", "apparent Kd": "1.4 µM", "replicates with signal": "3/3"}
{"changes": "Y29F+S88W+S93P", "apparent Kd": "13 µM", "replicates with signal": "3/3"}
{"changes": "E23F+Y30E+P54M", "apparent Kd": "19 nM", "replicates with signal": "3/3"}